{"source": "patent US8106007B2", "about": "“Conjugates of a polypeptide and a pentasaccharide” (N.V. Organon, priority 2005, dated 2012)", "origin": "cited, not measured here", "key": {"[1]": {"settings": "in man; cited from earlier work"}, "[2]": {"settings": "species not given; cited from earlier work"}}, "data": [{"substance": "insulin", "values": [{"measurement": "half-life", "setting": "[1]", "result": "about 12 minutes"}, {"measurement": "t ½", "setting": "[2]", "result": 12, "unit": "min"}]}]}
